Measured values reported in patent USRE49361E1, “Fused bicyclic (hetero)aromatic compounds useful for the treatment of cancers” (JAZZ PHARMACEUTICALS IRELAND LIMITED, priority 2014, dated 2023).
“Also recorded” adds a separate entry of the source.

test system: C-RAF-mediated ERK activation in B-RAF^WT IPC-298 cells (NRAS^Q61L); assay: IPC-298 AlphaScreen SureFire pERK1/2 cellular assay; type: cell-based, human; conditions: 1 hour treatment, in comparison to Dabrafenib

Compound | paradoxical activation of MAPK pathway (ERK phosphorylation) relative to Dabrafenib
O=C1CCc2c(Oc3ccc4c(c3)CC(c3nc(-c5ccccc5)c[nH]3)CO4)ccnc2N1 (stereo not drawn) [Example 3B, 5-[3-(4-phenyl-1H-imidazol-2-yl)chroman-6-yl]oxy-3,4-dihydro-1H-1,8-naphthyridin-2-one] | reduced paradoxical activity
O=C1CCc2c(Oc3ccc4c(c3)CC(c3nc(-c5ccccc5)c[nH]3)CO4)ccnc2N1 (stereo not drawn) [Example 3A, 5-[3-(4-phenyl-1H-imidazol-2-yl)chroman-6-yl]oxy-3,4-dihydro-1H-1,8-naphthyridin-2-one] | reduced paradoxical activity
O=C1CCc2c(Oc3ccc4c(c3)CC(c3nc(-c5ccccc5)c[nH]3)CO4)ccnc2N1 (stereo not drawn) [Example 3, 5-[3-(4-phenyl-1H-imidazol-2-yl)chroman-6-yl]oxy-3,4-dihydro-1H-1,8-naphthyridin-2-one] | reduced paradoxical activation; also recorded: reduced paradoxical activity
